Assay results from paper PMC9076861.

How the values were obtained:
[1] = target: human insulin receptor overexpressed on Rat-1 cells (Rat-1/hIR) (human) (UniProt P06213); assay: flow cytometry on cells; Rat-1/hIR cells (1 x 10^6 cells/sample) with 100 nM FITC-labeled insulin alone; 1 h at 4 °C in PBS, 1% BSA, 0.1% NaN3; washed, fixed with 4% paraformaldehyde
[2] = target: human insulin receptor overexpressed on Rat-1 cells (Rat-1/hIR) (human) (UniProt P06213); assay: flow cytometry on cells; Rat-1/hIR cells with 100 nM FITC-labeled insulin plus low concentrations of the DNA aptamer IR-A62 (3.2–80 nM), added at the same time; 1 h at 4 °C in PBS, 1% BSA, 0.1% NaN3

Q: For FITC-labeled insulin (ligand), which percent shift in the peak fluorescent intensity [1] is on record?
A: 6.24%

Q: What about the percent shift in the peak fluorescent intensity (with 3.2–80 nM IR-A62 aptamer) [2] of the same substance?
A: 64.2%
